# Test results taken from patent US20250122173A1, “MODULATORS OF RHO-ASSOCIATED PROTEIN KINASE” (Redx Pharma Limited, priority 2022, published 2025).
# The chains behind the UniProt entries cited, without tags or fusion partners. Residues count along the entry.
# UniProt O75116, 11-552 limits assumed: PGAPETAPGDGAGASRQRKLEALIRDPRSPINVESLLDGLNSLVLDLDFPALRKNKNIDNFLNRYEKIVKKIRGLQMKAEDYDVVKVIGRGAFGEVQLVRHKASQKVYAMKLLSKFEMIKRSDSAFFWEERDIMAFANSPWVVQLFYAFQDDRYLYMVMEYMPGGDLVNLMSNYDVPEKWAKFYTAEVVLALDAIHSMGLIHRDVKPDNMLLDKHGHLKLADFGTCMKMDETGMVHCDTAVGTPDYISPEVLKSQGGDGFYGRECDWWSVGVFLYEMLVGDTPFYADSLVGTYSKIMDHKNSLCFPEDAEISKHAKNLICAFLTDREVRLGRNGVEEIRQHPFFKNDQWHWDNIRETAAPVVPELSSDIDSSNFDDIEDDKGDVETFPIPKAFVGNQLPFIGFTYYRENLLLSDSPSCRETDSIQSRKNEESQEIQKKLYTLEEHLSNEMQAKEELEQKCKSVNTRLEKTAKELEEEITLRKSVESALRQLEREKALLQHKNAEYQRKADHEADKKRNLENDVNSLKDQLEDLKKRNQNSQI
# UniProt Q13464, whole entry: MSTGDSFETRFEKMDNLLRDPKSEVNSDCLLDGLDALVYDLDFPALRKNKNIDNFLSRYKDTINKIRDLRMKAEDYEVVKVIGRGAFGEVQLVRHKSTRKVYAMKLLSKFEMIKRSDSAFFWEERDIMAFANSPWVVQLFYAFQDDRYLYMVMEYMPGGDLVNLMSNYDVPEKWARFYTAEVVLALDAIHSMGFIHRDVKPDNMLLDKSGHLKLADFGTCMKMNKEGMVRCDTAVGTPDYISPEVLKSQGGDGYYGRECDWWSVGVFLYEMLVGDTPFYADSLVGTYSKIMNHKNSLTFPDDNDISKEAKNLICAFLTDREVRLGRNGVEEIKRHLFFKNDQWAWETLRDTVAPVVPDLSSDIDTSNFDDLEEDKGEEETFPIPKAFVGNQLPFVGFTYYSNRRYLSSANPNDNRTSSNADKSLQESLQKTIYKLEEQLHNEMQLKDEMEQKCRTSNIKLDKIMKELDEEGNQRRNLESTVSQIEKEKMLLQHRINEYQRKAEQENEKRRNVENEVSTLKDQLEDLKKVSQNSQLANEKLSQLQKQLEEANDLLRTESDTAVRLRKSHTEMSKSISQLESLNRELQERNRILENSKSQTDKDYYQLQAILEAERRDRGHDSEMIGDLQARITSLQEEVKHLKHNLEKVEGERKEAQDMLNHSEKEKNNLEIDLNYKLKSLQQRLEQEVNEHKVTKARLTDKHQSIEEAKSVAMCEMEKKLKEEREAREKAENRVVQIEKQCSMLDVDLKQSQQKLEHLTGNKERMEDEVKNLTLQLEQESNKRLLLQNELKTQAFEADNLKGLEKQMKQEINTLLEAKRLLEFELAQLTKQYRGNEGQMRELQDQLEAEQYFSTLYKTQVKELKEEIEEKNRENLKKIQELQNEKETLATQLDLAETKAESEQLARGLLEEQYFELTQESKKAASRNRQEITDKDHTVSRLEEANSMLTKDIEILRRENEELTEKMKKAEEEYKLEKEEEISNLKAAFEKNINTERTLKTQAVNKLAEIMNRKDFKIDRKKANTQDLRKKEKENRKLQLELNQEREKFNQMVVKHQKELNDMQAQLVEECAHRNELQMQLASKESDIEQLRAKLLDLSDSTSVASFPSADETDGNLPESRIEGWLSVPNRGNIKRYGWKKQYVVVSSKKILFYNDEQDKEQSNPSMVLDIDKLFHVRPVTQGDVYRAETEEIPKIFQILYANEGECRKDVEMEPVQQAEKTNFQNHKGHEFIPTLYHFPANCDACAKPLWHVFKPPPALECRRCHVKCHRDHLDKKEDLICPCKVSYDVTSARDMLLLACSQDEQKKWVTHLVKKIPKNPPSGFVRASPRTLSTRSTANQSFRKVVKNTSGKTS
# What was measured:
# [1] = target: ROCK2 (Homo sapiens, UniProt O75116); assay: ROCK2 inhibition assay (ADP-Glo kinase assay, called ROCK2 binding activity); format: biochemical; conditions: read-out: ROCK 2 (IC50 category), 20 μM ATP, 1 hour pre-incubation
# Method: ROCK2 Binding Activity: Assay for ROCK2 inhibition was performed using the protein construct N-terminal 6His-tagged ROCK2 catalytic domain 11-552 (Dundee University, UK). Protein was purified from a baculovirus expression system. Long S6 peptide ([…]) was used as substrate. Kinase reactions were carried out in 15 μl volume in a 96-well plate (black, half area) using 1.25 nM constitutively active ROCK2 kinase, 100 μM long S6 peptide, 20 μM ATP and test compound in DMSO (or DMSO only for controls). The final concentration of DMSO was 1%. Assay buffer was 50 mM HEPES pH 7.5 supplemented with 0.2 mM EDTA, 10 mM magnesium acetate, 0.01% Tween-20, 1 mM DTT and 0.01% BSA. Test compounds were pre-incubated with ROCK2 kinase for 1 hour before addition of ATP and long S6 peptide. After incubation for a further 1 hour, the amount of ADP produced was measured using ADP-Glo Kinase Assay (Promega) as per manufacturer's instructions. The luminescence was measured on a PHERAstar FS (BMG Labtech). The concentration of test compound required to inhibit ADP production by 50% (the IC50) was calculated using a four-parameter logistic function with software by Dotmatics. […] The category “+” refers to compounds with a ROCK2 or ROCK1 IC50 value of >10 μM. The category “++” refers to compounds with a ROCK2 or ROCK1 IC50 value of 10 to 3 μM. […]
# [2] = target: ROCK1 (Homo sapiens, UniProt Q13464); assay: ROCK1 inhibition assay (ROCK1 binding activity, as determined by the assay described for ROCK2); format: biochemical; conditions: read-out: ROCK 1 (IC50 category)
# Method: Assay for ROCK2 inhibition was performed using the protein construct N-terminal 6His-tagged ROCK2 catalytic domain 11-552 (Dundee University, UK). Protein was purified from a baculovirus expression system. Long S6 peptide ([…]) was used as substrate. Kinase reactions were carried out in 15 μl volume in a 96-well plate (black, half area) using 1.25 nM constitutively active ROCK2 kinase, 100 μM long S6 peptide, 20 μM ATP and test compound in DMSO (or DMSO only for controls). The final concentration of DMSO was 1%. Assay buffer was 50 mM HEPES pH 7.5 supplemented with 0.2 mM EDTA, 10 mM magnesium acetate, 0.01% Tween-20, 1 mM DTT and 0.01% BSA. Test compounds were pre-incubated with ROCK2 kinase for 1 hour before addition of ATP and long S6 peptide. After incubation for a further 1 hour, the amount of ADP produced was measured using ADP-Glo Kinase Assay (Promega) as per manufacturer's instructions. The luminescence was measured on a PHERAstar FS (BMG Labtech). The concentration of test compound required to inhibit ADP production by 50% (the IC50) was calculated using a four-parameter logistic function with software by Dotmatics. […] The category “+” refers to compounds with a ROCK2 or ROCK1 IC50 value of >10 μM. The category “++” refers to compounds with a ROCK2 or ROCK1 IC50 value of 10 to 3 μM. The category “+++” refers to compounds with a ROCK1 or ROCK2 IC50 value of 3 to 0.3 μM. […]
compound,measurement,setting,value
CCn1nc(-c2ccc(-c3ccc(C)nc3)c(F)c2)nc1Nc1ccc2c(c1)CNC2=O,IC50,[1],< 0.3 µM
same,IC50,[2],> 10 µM
